# Patent US11426409B2, “Compounds, compositions and methods for treating or preventing HER-driven drug-resistant cancers” (The Regents of the University of Colorado, priority 2017, dated 2022)
# System: CUTO14 xenografts
# Conditions: after four weeks of treatment; afatinib 6 mg/Kg daily PO; tarloxotinib 48 mg/Kg Qwx4 IP
compound,measurement,value
"CN(C)CC=CC(=O)Nc1cc2c(Nc3ccc(F)c(Cl)c3)ncnc2cc1O[C@H]1CCOC1 [afatinib, N-[4-[(3-Chloro-4-fluorophenyl)amino]-7-[[(3S)-tetrahydro-3-furanyl]oxy]-6-quinazolinyl]-4(dimethylamino)-2-butenamide]",Effect on tumor growth,did not alter tumor growth
